Source: patent US20260183363A1, “INHIBITION OF LUTEINIZING HORMONE (LH) ACTION AS TREATMENT OF PERIMENOPAUSAL AND POSTMENOPAUSAL SYMPTOMS AND COMPLICATIONS” (RIGSHOSPITALET, priority 2022, published 2026)

Tested on: human kidney tissue
Assay: Ex vivo culture of human kidney tissue, qRT-PCR gene expression
Format: cell-based
Method: Human kidney tissues from 5 adults (4 men, 1 […]) were cultured. All donors underwent partial nephrectomy due to suspected malignant kidney tumors and a pathologist removed tissues outside the malignant area. Kidney specimens were dissected in small pieces 1 mm^3 and cultured for either 3 or 24 hours in a hanging drop ex vivo model. Tissues were treated with either vehicle (media containing DMEM, insulin-transferrin-selenium, penicillin, streptomycin and 10% fetal bovine serum) or media also containing one of the following: PTH (0.01 pg/mL), LH (1 IU/mL), hCG (1 IU/mL), estradiol (1 nmol/L) or testosterone (50 nmol/L) and subsequently stored at −80° C. for subsequent RNA purification and cDNA synthesis.
Gene expression profiling was done by qRT-PCR analyzing levels of calcium transporters SLC12A-1, SLC12A-2, TRPV5 as well as calcium-sensing receptor (CASR). The inventors also measured kidney expression of exon 2-4 and 11 of LHCGR using a primer-sequence previously validated by sequencing of the product from both serum and testis tissue. As calcium transporters are differentially expressed in the different parts of the nephron, all samples were standardized according to the expression of Uromodulin (UMOD), a protein located in the thick ascending limb of the loop of Henle and subsequently to MAP3K7 expressed in the distal convoluted tubules and in addition to being standardized to the housekeeping gene, RPS20. Ethical committee approval: H-17004362. All samples were analyzed with ANOVA with control/baseline as reference value and every p-value presented was adjusted for multiple comparisons with Dunnett's post hoc test.

hCG: human chorionic gonadotropin (Pregnyl), LHCGR agonist with longer serum half-life than LH
expression levels of CASR and calcium transporters SLC12A-1, SLC12A-2, SLC12A-3 (3 or 24 hours culture): no transcriptional changes
expression of LHCGR exon 2-4 (three hours culture): tendency towards increased expression
